Test results taken from ChEMBL document CHEMBL1155335, “Studies towards topical selective beta2-adrenoceptor agonists with a long duration of action” (Bioorg Med Chem Lett, 2009).
Activity calls are given as the source filed them. The calls are words filed in the database; no cut-off is given here.

Experiments:
Type in all cases: functional, organism-based
Cavia porcellus [1] = experiment: Bronchoprotective activity in guinea pig assessed as inhibition of acetylcholine-induced increase in pulmonary resistance at 1 ug/kg, intratracheally after 5 hrs
Cavia porcellus [2] = experiment: Bronchoprotective activity in intratracheally dosed guinea pig assessed as inhibition of acetylcholine-induced increase in pulmonary resistance at 0.3 ug/kg, intratracheally after 30 mins
Cavia porcellus [3] = experiment: Bronchoprotective activity in intratracheally dosed guinea pig assessed as inhibition of acetylcholine-induced increase in pulmonary resistance at 1 ug/kg, intratracheally after 150 mins

Q: Which results are given for `COc1ccc(CC(C)NCC(O)c2ccc(O)c(NC=O)c2)cc1` (stereo not drawn)?
A: Activity (Cavia porcellus [1]): Active; Activity (Cavia porcellus [2]): inactive; Activity (Cavia porcellus [3]): inactive
